{"source": "patent US20040171795A1", "about": "“Novel peptides” (priority 2000, published 2004)", "assay": "Evaluation of toxicity of the peptide, tail vein administration", "type": "in vivo", "conditions": "female BALB/c mouse, 5 mg/kg", "procedure": "The peptide of the present invention was administered to a mouse from its tail vein to thereby evaluate its toxicity. The mouse used was a female BALB/c mouse of 5 week old, and the peptide was used at a dose of 5 mg/kg."}
{"smiles": "CC(C)C[C@H](NC(=O)[C@H](C)NC(=O)[C@H](CC(C)C)NC(=O)[C@H](CCC(N)=O)NC(=O)[C@H](Cc1c[nH]cn1)NC(=O)[C@@H](NC(=O)[C@H](Cc1c[nH]c2ccccc12)NC(=O)[C@H](CO)NC(=O)[C@H](CCCNC(=N)N)NC(=O)[C@@H]1CCCN1C(=O)[C@H](Cc1c[nH]cn1)NC(=O)[C@H](CC(C)C)NC(=O)[C@H](CCCNC(=N)N)NC(=O)[C@H](CC(C)C)NC(=O)[C@H](Cc1ccc(O)cc1)NC(=O)[C@H](CCCNC(=N)N)NC(=O)[C@H](CC(C)C)NC(=O)[C@H](CCCNC(=N)N)NC(=O)[C@H](CC(C)C)NC(=O)[C@H](C)NC(=O)[C@H](CC(C)C)NC(=O)[C@H](CCC(N)=O)NC(=O)[C@H](Cc1c[nH]cn1)NC(=O)[C@@H](NC(=O)[C@H](Cc1c[nH]c2ccccc12)NC(=O)[C@H](CO)NC(=O)[C@H](CCCNC(=N)N)NC(=O)[C@@H]1CCCN1C(=O)[C@H](Cc1c[nH]cn1)NC(=O)[C@H](CC(C)C)NC(=O)[C@H](CCCNC(=N)N)NC(=O)[C@H](CC(C)C)NC(=O)[C@H](Cc1ccc(O)cc1)NC(=O)[C@H](CCCNC(=N)N)NC(=O)[C@@H](N)[C@@H](C)O)C(C)C)C(C)C)C(=O)N[C@@H](CCCNC(=N)N)C(=O)N[C@@H](CO)C(=O)O", "note": "[SEQ ID NO: 16]", "values": [{"measurement": "toxicity after tail vein administration", "value": "no significant effects"}]}
